Test results taken from patent US6043279A, “Compounds having selective activity for retinoid X receptors, and means for modulation of processes mediated by retinoid X receptors” (priority 1997, dated 2000).

By UniProt entry, the sequences of proteins in these tests, tags left out. Residues count along the entry.
UniProt P10276, whole entry: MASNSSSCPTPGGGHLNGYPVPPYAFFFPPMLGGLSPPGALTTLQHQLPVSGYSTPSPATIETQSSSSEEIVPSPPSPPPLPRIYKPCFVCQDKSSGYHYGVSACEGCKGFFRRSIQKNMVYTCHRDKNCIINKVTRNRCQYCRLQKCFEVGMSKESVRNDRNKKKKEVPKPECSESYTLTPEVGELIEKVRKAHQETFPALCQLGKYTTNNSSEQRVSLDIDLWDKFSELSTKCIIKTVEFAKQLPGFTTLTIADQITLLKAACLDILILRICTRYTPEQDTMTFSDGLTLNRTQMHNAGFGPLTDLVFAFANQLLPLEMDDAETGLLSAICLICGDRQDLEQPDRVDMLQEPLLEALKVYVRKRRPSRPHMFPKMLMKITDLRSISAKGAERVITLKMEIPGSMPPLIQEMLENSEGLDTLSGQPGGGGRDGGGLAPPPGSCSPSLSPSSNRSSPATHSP
UniProt P10826, 1-448 isoform P10826-2: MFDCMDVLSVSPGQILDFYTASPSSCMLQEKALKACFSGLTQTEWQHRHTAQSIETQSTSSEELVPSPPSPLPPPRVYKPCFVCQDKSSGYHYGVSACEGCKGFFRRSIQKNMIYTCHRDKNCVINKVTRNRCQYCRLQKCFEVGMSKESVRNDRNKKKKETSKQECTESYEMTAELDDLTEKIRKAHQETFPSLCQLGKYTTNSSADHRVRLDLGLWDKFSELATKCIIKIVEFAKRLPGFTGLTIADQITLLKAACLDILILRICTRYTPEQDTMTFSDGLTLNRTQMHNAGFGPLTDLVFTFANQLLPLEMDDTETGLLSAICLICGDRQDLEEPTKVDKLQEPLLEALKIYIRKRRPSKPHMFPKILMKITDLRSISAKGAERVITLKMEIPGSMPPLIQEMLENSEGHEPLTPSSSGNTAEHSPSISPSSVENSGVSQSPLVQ
UniProt P13631, whole entry: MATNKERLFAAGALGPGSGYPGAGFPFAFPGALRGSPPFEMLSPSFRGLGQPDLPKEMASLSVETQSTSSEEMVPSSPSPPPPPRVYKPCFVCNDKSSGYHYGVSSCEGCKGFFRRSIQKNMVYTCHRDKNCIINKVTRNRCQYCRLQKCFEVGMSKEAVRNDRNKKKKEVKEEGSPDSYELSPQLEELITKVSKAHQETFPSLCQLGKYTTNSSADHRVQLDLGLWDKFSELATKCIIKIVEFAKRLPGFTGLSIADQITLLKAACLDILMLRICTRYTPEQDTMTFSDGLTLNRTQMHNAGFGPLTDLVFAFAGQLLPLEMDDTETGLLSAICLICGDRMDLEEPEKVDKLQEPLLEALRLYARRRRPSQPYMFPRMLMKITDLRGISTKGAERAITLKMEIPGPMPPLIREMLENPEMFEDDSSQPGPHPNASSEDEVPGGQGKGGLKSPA

Assays:
RXRγ = biological target: T1, RXRγ (Mus musculus, UniProt P28705); experiment: co-transfection (cis-trans) assay in CV-1 cells, RXRγ; details: CV-1, read-out: Efficacy RXRγ
T1 sequence (P28705 1-463): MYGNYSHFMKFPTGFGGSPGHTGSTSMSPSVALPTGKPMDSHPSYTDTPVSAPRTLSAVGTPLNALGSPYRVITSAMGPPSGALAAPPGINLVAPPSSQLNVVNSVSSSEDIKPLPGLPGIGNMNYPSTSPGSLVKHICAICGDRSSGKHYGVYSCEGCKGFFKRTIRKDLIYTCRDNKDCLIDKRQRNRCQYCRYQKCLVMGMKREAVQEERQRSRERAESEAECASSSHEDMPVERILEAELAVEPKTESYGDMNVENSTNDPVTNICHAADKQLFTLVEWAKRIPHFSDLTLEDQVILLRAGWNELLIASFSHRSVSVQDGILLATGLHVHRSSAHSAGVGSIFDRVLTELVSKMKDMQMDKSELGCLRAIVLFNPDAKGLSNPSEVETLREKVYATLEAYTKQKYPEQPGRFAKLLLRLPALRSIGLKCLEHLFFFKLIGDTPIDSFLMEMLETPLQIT

RARα = RARα (Homo sapiens, UniProt P10276); experiment: co-transfection (cis-trans) assay in CV-1 cells, RARα; details: 10 µM
RARβ = RARβ (Homo sapiens, UniProt P10826); experiment: co-transfection (cis-trans) assay in CV-1 cells, RARβ; details: maximal response relative to all-trans-retinoic acid at 10^-5 M; 10 µM
RARγ = RARγ (Homo sapiens, UniProt P13631); experiment: co-transfection (cis-trans) assay in CV-1 cells, RARγ; details: 10 µM

Compound: CC1=C(/C=C/C(C)=C\C=C\C(C)=C\C(=O)O)C(C)(C)CCC1 [reference compound]
- Emax at 10 µM (RXRγ): 140%
- Efficacy RARα (RARα): 100%
- Efficacy RARβ (RARβ): 82%
- Efficacy RARγ (RARγ): 120%
